The source of these data is PubChem BioAssay AID651644 (National Center for Advancing Translational Sciences (NCATS), 2012).

This list holds what a sample rich in hits left over. Activity calls are given as the source filed them. Calls come from the whole dose curve; as a rule, active = well fitted falling curve with a large enough effect; inconclusive = small, poorly fitted or top-dose-only effect; inactive = no such curve, though single readings can be large or run the other way.
% is set by controls: 0 for no effect and ±100 for the full control effect.

The test in a line: qHTS Assay for Inhibitors of the HIV-1 protein Vpr. Note: nearly all actives have a fitted effect of over 50% in size. Particulars: S. pombe RE007 Vpr strain, BacTiter-Glo ATP luminescence, 24 h; at 92.2 µM (top of the series). From the text:
Human immunodeficiency virus type 1 (HIV-1), the causative agent of AIDS, contains a protein called viral protein R (Vpr) that plays an important role in the viral life cycle and the pathogenesis of HIV-1.
These Vpr specific activities include cytoplasmic-nuclear shuttling, induction of cell cycle G2 arrest and cell killing. The cytoplasmic-nuclear shuttling is believed to participate in nuclear transport of the proviral integration complex (PIC). The cell cycle G2 arrest induced by Vpr is thought to suppress human immune functions by preventing T cell clonal expansion and to provide an optimized cellular environment for maximal levels of viral replication. In addition, Vpr induces apoptosis, which may contribute to the depletion of CD4 T cells in HIV-infected patients. Since the Vpr-specific activities have been linked to such clinical manifestation of AIDS as activation of viral replication, suppression of host immune responses and depletion of CD4+ T-lymphocytes, identification of new molecular probes that can inhibit the Vpr activities could potentially provide a new approach to reduce Vpr-mediated detrimental effects in HIV-infected patients, and thus prolong patient's lives. Currently, there are no anti-Vpr drugs.
A fission yeast (Schizosaccharomyces pombe) model system for the Vpr studies has been developed which measures HIV-1 Vpr-induced cell death. […]
For `CC(=O)C1CCC2C3CC=C4CC(SC(=N)N)CCC4(C)C3CCC12C` (stereo unspecified), the activity change, negative = less growth is inactive: 49.3%.
